# Values of other authors in publication PMC12299506, “Flipping the Target: Evaluating Natural LDHA Inhibitors for Selective LDHB Modulation” (Molecules, 2025).
# Molecular target: LDHB
# Parameters: method as in PMID 2073051, PMID 9497046, PMID 11377399
# Conditions: cited from earlier work
smiles,measurement,value
"Cc1cc2c(C(C)C)c(O)c(O)c(C=O)c2c(O)c1-c1c(C)cc2c(C(C)C)c(O)c(O)c(C=O)c2c1O [gossypol, Gossypol]",Ki,1400 nM
